{"source": "patent US20100239639A1", "about": "“MEDICATED PATCH” (HISAMITSU PHARMACEUTICAL CO., INC., priority 2007, published 2010)", "assay": "Solubility test of BM-DBM", "assay_type": "physicochemical", "conditions": "1 g BM-DBM mixed with 2 g additive, dissolved at 140° C., cooled to room temperature for 30 min"}
{"smiles": "CC1CCC(C(C)C)C(OCC(O)CO)C1", "note": "[L-menthyl glyceryl ether]", "values": [{"measurement": "Solubility of BM-DBM", "value": "◯"}, {"measurement": "solubility of BM-DBM (in words)", "value": "particularly good solubility of BM-DBM"}]}
